Source: patent US9062124B2, “GIP-based mixed agonists for treatment of metabolic disorders and obesity” (priority 2008, dated 2015)

Amino acid sequences for entries named in this document (tags omitted). Residues count along the entry.
UniProt P47871, 26-477: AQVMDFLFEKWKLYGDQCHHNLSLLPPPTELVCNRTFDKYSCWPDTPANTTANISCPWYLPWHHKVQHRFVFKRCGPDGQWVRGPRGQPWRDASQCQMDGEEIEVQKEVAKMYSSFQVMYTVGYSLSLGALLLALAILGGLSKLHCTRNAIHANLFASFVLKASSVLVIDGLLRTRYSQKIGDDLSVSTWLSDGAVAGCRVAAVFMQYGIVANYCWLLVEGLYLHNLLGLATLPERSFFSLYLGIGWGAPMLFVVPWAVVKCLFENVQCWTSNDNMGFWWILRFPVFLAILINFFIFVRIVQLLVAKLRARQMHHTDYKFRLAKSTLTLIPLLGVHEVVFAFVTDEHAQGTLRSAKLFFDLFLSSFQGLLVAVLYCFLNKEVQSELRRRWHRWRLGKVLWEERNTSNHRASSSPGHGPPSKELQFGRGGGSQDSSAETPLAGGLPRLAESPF
UniProt P43220, 24-463, species assumed: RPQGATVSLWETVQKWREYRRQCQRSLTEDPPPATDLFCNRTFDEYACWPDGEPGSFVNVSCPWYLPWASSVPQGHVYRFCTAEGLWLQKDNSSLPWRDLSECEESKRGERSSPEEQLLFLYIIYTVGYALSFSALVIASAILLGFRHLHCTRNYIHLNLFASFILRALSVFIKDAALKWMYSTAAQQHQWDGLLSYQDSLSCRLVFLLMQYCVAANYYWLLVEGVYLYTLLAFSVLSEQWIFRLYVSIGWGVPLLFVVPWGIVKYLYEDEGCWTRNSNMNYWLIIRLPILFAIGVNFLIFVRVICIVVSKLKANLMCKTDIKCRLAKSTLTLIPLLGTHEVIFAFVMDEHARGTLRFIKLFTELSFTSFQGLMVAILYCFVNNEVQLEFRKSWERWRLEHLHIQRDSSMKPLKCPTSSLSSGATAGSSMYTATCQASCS

Legend:
Type in all cases: cell-based
glucagon receptor = target: T1, glucagon receptor (Homo sapiens, UniProt P47871); assay: cAMP synthesis functional assay (firefly luciferase reporter in HEK293 cells), glucagon receptor; conditions: relative to the standard (Std.) EC50 of the same run
T1 construct: expressed in transfected cells; host or cells: HEK293

GLP-1 receptor = target: T2, GLP-1 receptor (Homo sapiens, UniProt P43220); assay: cAMP synthesis functional assay (firefly luciferase reporter in HEK293 cells), GLP-1 receptor; conditions: relative to the standard (Std.) EC50 of the same run
T2 construct: expressed in transfected cells; host or cells: HEK293

GIP receptor = target: T3, GIP receptor (Homo sapiens, UniProt P48546); assay: cAMP synthesis functional assay (firefly luciferase reporter in HEK293 cells), GIP receptor; conditions: relative to the standard (Std.) EC50 of the same run
T3 construct: expressed in transfected cells; host or cells: HEK293
T3 sequence (P48546 22-466): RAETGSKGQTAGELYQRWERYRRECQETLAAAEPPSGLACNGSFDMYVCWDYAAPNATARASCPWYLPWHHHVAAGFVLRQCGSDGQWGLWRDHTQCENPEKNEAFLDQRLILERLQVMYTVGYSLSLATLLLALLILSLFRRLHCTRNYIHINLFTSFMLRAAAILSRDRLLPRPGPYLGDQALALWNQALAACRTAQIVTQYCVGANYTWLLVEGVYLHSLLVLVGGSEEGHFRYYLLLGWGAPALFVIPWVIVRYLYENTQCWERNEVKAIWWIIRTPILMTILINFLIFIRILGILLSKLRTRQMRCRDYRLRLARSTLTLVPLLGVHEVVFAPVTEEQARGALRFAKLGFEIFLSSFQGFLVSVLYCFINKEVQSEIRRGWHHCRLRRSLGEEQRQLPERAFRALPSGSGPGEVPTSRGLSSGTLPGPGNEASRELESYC

[1] = tested on: glucagon receptor, GLP-1 receptor or GIP receptor; assay: Agonist profile across receptors assigned from the cAMP reporter assay data; conditions: assigned from the in vitro EC50 data of Tables 1-4

Compound: CCCCCCCCCCCCCC(=O)NCCCC[C@H](NC(=O)[C@H](CO)NC(=O)[C@@H]1CCCN1C(=O)[C@@H]1CCCN1C(=O)[C@@H]1CCCN1C(=O)[C@H](C)NC(=O)CNC(=O)[C@H](CO)NC(=O)[C@H](CO)NC(=O)[C@@H]1CCCN1C(=O)CNC(=O)CNC(=O)[C@H](CC(N)=O)NC(=O)[C@H](CCSC)NC(=O)[C@H](CC(C)C)NC(=O)[C@H](Cc1c[nH]c2ccccc12)NC(=O)[C@H](CS)NC(=O)[C@@H](NC(=O)[C@H](Cc1ccccc1)NC(=O)[C@H](CCC(=O)O)NC(=O)[C@H](CCCCN)NC(=O)[C@H](C)NC(=O)[C@H](C)NC(=O)[C@H](CCC(N)=O)NC(=O)[C@H](CCC(=O)O)NC(=O)[C@H](CC(=O)O)NC(=O)[C@H](CC(C)C)NC(=O)[C@H](Cc1ccc(O)cc1)NC(=O)[C@H](CCCCN)NC(=O)[C@H](CO)NC(=O)[C@H](Cc1ccc(O)cc1)NC(=O)[C@H](CC(=O)O)NC(=O)[C@H](CO)NC(=O)[C@@H](NC(=O)[C@H](Cc1ccccc1)NC(=O)[C@@H](NC(=O)CNC(=O)[C@H](CCC(N)=O)NC(=O)C(C)(C)NC(=O)[C@@H](N)Cc1c[nH]cn1)[C@@H](C)O)[C@@H](C)O)[C@@H](C)CC)C(N)=O [mt-345]
- Glucagon Receptor relative activity (glucagon receptor): 192.90%
- GLP-1 Receptor relative activity (GLP-1 receptor): 152.78%
- GIP Receptor relative activity (GIP receptor): 4.99%
- receptor activity profile (glucagon / GLP-1 / GIP agonism) [1]: exhibited activity at the GIP, GLP-1, and glucagon receptors
